The test addresses T1, 17-beta-hydroxysteroid dehydrogenase type 2 (Homo sapiens, UniProt P37059).
T1 sequence (P37059 whole entry): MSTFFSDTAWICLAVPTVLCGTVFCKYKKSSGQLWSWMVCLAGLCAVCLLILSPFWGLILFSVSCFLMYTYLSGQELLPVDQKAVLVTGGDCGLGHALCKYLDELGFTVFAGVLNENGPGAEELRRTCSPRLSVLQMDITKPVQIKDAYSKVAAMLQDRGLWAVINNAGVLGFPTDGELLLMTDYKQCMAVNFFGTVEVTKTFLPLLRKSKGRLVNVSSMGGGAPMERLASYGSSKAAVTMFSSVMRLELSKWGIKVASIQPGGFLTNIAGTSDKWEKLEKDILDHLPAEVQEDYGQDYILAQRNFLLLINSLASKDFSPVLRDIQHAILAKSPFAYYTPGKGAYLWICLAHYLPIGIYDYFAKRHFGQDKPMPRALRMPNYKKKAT
The test is described as follows: Radioactivity Assay: The determination of IC50 values was performed with enzyme isolated from human placenta (Luu-The, V. et al., J. Steroid Biochem. Mol. Biol., 55:581-587 (1995): Sam, K. M. et al., Drug Des Discov., 15:157-180 (1997)). The radioactivity is determined by means of scintillation measurement.

Usually IC50 stands for the point on the concentration scale where inhibition reaches its midpoint. In the case of `Oc1cccc(-c2ccc3c(-c4ccncc4)c(O)ccc3c2)c1`, the IC50 turned out to be 583 nM.

(Values after ChEMBL document CHEMBL3638998, “17Beta-hydroxysteroid dehydrogenase type 1 inhibitors for the treatment of hormone-related diseases” (2013).)
